B1: GPC3-P2C47-hIgG1LALAPG (bispecific antibody)
heavy: QVQLVQSGAEVKKPGASVKVSCKASGYTFTDYEMHWVRQAPGQGLEWMGAIHPGSGGTAYNQKFKGRVTMTRDTSTSTVYMELSSLRSEDTAVYYCARYYSYAYWGQGTLVTVSSASTKGPSVFPLAPSSKSTSGGTAALGCLVKDYFPEPVTVSWNSGALTSGVHTFPAVLQSSGLYSLSSVVTVPSSSLGTQTYICNVNHKPSNTKVDKKVEPKSCDKTHTCPPCPAPEAAGGPSVFLFPPKPKDTLMISRTPEVTCVVVDVSHEDPEVKFNWYVDGVEVHNAKTKPREEQYNSTYRVVSVLTVLHQDWLNGKEYKCKVSNKALGAPIEKTISKAKGQPREPQVYTLPPSREEMTKNQVSLTCLVKGFYPSDIAVEWESNGQPENNYKTTPPVLDSDGSFFLYSKLTVDKSRWQQGNVFSCSVMHEALHNHYTQKSLSLSPGKGGGGSGGGGSGGGGSGGGGSQVQLVQSGAEVKKPGESLKVSCKASGYTFTSYYMHWVRQAPGQGLEWMGAIEPMYGSTSYAQKFQGRVTMTRDTSTSTVYMELSSLRSEDTAVYYCARGSAYYYDFADYWGQGTLVTVSSGGGGSGGGGSGGGGSSYVLTQPSSVSVAPGQTATISCGGHNIGSKNVHWYQQRPGQSPVLVIYQDNKRPSGIPERFSGSNSGNTATLTISGTQAMDEADYYCQVWDNYSVLFGGGTKLTVL
light: DIVMTQTPLSLSVTPGQPASISCRSSQSLVHSNGNTYLQWYLQKPGQSPQLLIYKVSNRFSGVPDRFSGSGSGTDFTLKISRVEAEDVGVYYCFQSIHVPYTFGGGTKLEIKRTVAAPSVFIFPPSDEQLKSGTASVVCLLNNFYPREAKVQWKVDNALQSGNSQESVTEQDSKDSTYSLSSTLTLSKADYEKHKVYACEVTHQGLSSPVTKSFNRGEC
B2: GPC3-45H6E8-hIgG1LALAPG (bispecific antibody)
heavy: QVQLVQSGAEVKKPGASVKVSCKASGYTFTDYEMHWVRQAPGQGLEWMGAIHPGSGGTAYNQKFKGRVTMTRDTSTSTVYMELSSLRSEDTAVYYCARYYSYAYWGQGTLVTVSSASTKGPSVFPLAPSSKSTSGGTAALGCLVKDYFPEPVTVSWNSGALTSGVHTFPAVLQSSGLYSLSSVVTVPSSSLGTQTYICNVNHKPSNTKVDKKVEPKSCDKTHTCPPCPAPEAAGGPSVFLFPPKPKDTLMISRTPEVTCVVVDVSHEDPEVKFNWYVDGVEVHNAKTKPREEQYNSTYRVVSVLTVLHQDWLNGKEYKCKVSNKALGAPIEKTISKAKGQPREPQVYTLPPSREEMTKNQVSLTCLVKGFYPSDIAVEWESNGQPENNYKTTPPVLDSDGSFFLYSKLTVDKSRWQQGNVFSCSVMHEALHNHYTQKSLSLSPGKGGGGSGGGGSGGGGSGGGGSEVQLQQSGAELVRSGASVKLSCTASGFNIKDYYMQWVKQRPEQGLEWIGWIDPENGDTEYAPKFQGKATMTADTSSNTAYLQLSSLTSEDTAVYYCTTGGNYVDWGQGTTLTVSSGGGGSGGGGSGGGGSDIVMTQSQKFMSTSVGDRVSITCKASQNVGTAVAWYQQKPGQSPKLLIYSASNRYTGVPDRFTGSGSGTDFTLTISNMQSEDLADYFCQQYSSYPLLTFGAGTNLELK
light: B1 light

By UniProt entry, the sequences of proteins in these tests, tags left out. Residues count along the entry.
UniProt P51654, 25-554 limits assumed: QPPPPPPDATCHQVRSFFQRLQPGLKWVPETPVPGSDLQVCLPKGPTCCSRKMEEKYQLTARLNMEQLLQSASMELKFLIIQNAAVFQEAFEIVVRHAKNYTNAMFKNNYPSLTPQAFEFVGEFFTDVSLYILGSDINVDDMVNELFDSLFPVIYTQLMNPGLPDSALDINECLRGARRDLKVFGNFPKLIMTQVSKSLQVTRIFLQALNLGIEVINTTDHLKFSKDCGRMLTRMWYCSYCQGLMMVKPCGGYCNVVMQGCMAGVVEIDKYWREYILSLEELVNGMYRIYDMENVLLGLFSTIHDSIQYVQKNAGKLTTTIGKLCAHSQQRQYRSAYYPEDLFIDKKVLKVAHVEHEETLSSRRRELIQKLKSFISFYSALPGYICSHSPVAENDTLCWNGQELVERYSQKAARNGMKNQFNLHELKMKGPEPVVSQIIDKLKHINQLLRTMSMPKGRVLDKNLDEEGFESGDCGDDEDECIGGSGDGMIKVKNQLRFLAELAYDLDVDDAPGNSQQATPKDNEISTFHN

Biological target: T1, human GPC3 on HepG2 cells (human, UniProt P51654 25-554)
T1 construct: whole, on cells; also called GPC3-positive HepG2 cells
Test: flow cytometry, HepG2 cells (GPC3 positive), geometric mean

Binder	EC50 (read off the curve)
B1	~0.3 nM
B2	~0.3 nM

From patent US20260242485A1 (LEPU BIOPHARMA, published 2026)
